## Measured affinities in a library of Ab-95 light chain variants

Target: peptide PDVDLGDISGINAS, taken from heptad repeat 2 (HR2) of SARS-CoV-2 spike.

The variants keep the heavy chain, the linker and the frameworks of Ab-95 (scFv order VH, a 15-residue (Gly4Ser)3 linker, VL).
VH: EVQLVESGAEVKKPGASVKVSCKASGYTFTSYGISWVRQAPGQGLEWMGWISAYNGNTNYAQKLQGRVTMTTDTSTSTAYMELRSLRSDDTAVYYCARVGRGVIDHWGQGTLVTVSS
VL: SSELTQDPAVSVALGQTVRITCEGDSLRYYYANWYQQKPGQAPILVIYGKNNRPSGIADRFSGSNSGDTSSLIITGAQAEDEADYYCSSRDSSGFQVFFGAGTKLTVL

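The starting antibody came from a phage panning campaign against this peptide. AAYL52 was designed without a model: most single CDR substitutions and a random sample of double and triple ones. The assay is AlphaSeq: two haploid yeast populations carry antibody and antigen on their surface. Mating (16 h, 30 °C) was followed by selection of diploids and sequencing of their barcodes. Read counts were normalised to the haploid input and turned into Kd by a linear fit to BCL2-family pairs of known affinity, for each replicate. There are three technical replicates.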

Variants are written as CDR1, CDR2 and CDR3 of the light chain (limits as in the source). Parent: EGDSLRYYYAN, GKNNRPS, SSRDSSGFQVF.
Affinities are written as log10 Kd with Kd in nM; a lower number is a better binder.
The mean shown is taken over the replicates in which the pair was detected.
Where no diploid with the target was found in that replicate, the entry reads "ND": below detection, most likely a poor binder, though not proof of it.

CDR-L1	CDR-L2	CDR-L3	log10 Kd (nM) by replicate	mean log10 Kd (nM)	empty controls
EGMSLRYYYAN	GKNNKPS	SSRDSSKFQVF	ND 3.81 ND	3.81	1 of 9 (4.09)
EGVVLRYYYAN	GKNNRPS	SSRDSSGSQVF	3.40 ND ND	3.40	3 of 9 (3.60)
EGDSLRYYYAN	DKNNPPS	SSRDRSGFQVF	3.07 ND ND	3.07	1 of 9 (3.72)
EGDSLRYYYAN	GKNNRPS	SSRDSSQFIVF	3.21 4.31 2.79	3.43	1 of 9 (3.79)
EGASLRPYYAN	GKNNRPS	SHRDSSGFQVF	2.63 2.33 2.02	2.33	5 of 9 (4.44)
VFDSLRYYYAN	GKNNRPS	SSRDHSGFQVF	3.66 ND ND	3.66	2 of 9 (4.32)
ENDSLSYYYAR	GKNNRPS	SSRDSSGFQVF	ND ND 2.91	2.91	1 of 9 (3.58)
EGDSVRYYYAN	GDNNRPS	SSRDSSSFQVF	3.62 3.32 2.38	3.11	0 of 9
EGDSLRYYYGN	GKNNRPS	SVRMSSGFQVF	4.53 ND 3.28	3.90	2 of 9 (3.60)
EGRSLRYYYAH	TKNNRPS	SSRDSSGFQVF	3.17 3.69 3.71	3.52	4 of 9 (4.07)
EKDSLRYYYAN	GKNRRPS	SSRDSSGTQVF	ND ND ND	ND	0 of 9
EGDSLRYDMAN	GKNNRPS	SSRDRSGFQVF	2.04 1.69 1.48	1.74	1 of 9 (3.88)
EGDMLRYYAAN	GVNNRPS	SSRDSSGFQVF	2.64 2.49 2.51	2.55	2 of 9 (4.26)
EGDSLRKYYAN	FKNHRPS	SSRDSSGFQVF	4.31 4.97 4.03	4.43	5 of 9 (3.45)
EGDSLRYYYAN	DKNNRPS	SIRDSSNFQVF	ND ND ND	ND	0 of 9
EGDSLRYYYAN	GKNRRPS	YSRDSSGFQVY	ND ND ND	ND	0 of 9
EIDSLRYYYAN	GKNNRPS	SSRDSSGIEVF	5.09 3.49 ND	4.29	0 of 9
EWDSLRYYYPN	KKNNRPS	SSRDSSGFQVF	ND ND ND	ND	0 of 9
EGDSLRYYYAN	GKNSRPS	SSRDTSSFQVF	3.20 3.79 4.06	3.69	3 of 9 (3.86)
EGDSLRYYYAN	GKNNRKS	SSRMASGFQVF	3.76 5.07 ND	4.42	1 of 9 (2.82)
EGDSLRYYCAN	GKNNNPS	SSRDSSGTQVF	3.03 3.18 3.53	3.25	2 of 9 (3.68)
EGDSLRWYYCN	KKNNRPS	SSRDSSGFQVF	4.35 4.30 ND	4.33	3 of 9 (4.20)
EGDSLRYYYAN	GKDNRPS	SSRDSSLFIVF	3.11 3.38 ND	3.25	1 of 9 (3.88)
EGDSRRYYQAN	GKQNRPS	SSRDSSGFQVF	5.63 3.95 4.50	4.70	2 of 9 (3.99)
EGDSLRYYYAN	GKNNRPS	TSRDFSGFQVF	ND 3.66 4.59	4.12	5 of 9 (3.98)
EGDSLRYAYAN	GKNNRPS	SSRDSKKFQVF	1.16 1.67 0.96	1.26	6 of 9 (4.20)
EGDSQRYYYAN	GKNNRPS	MSFDSSGFQVF	ND 4.37 ND	4.37	3 of 9 (3.32)
EPDSLRYSYAN	GKNNRPS	SSRRSSGFQVF	ND ND ND	ND	1 of 9 (4.62)
EGDSLVYYYAN	GKNNQPS	SSRDSSDFQVF	3.71 ND ND	3.71	2 of 9 (3.70)
EGDSLKYYYAN	GKNNRPS	SSWDRSGFQVF	2.78 2.78 2.06	2.54	2 of 9 (4.16)
EGDSLRYYYAN	GKNNSPS	SSRDSSGFQAH	ND 5.75 ND	5.75	4 of 9 (3.82)
EGDSLRYYYAN	GKNNRPS	SSQDSFGSQVF	2.24 2.19 1.67	2.03	4 of 9 (4.03)
EGDSVEYYYAN	GKNNRPS	RSRDSSGFQVF	ND ND 4.41	4.41	2 of 9 (3.83)
EGDSLRYCYAN	GKNNRPS	SSRDSSGFQVI	3.04 2.63 2.96	2.88	5 of 9 (3.99)
ERDSLRRYYAN	GKNNRPS	SSRDSSGFGVF	5.66 ND ND	5.66	4 of 9 (3.79)
EGDSLRYYYAN	GKYNRPS	SSRDLSGFQWF	ND 4.22 4.13	4.17	4 of 9 (4.45)
EDDSLRYYYAN	GKNNRPS	HSRDSAGFQVF	ND ND ND	ND	1 of 9 (4.05)
QLDSLRYYYAN	GKNNRPS	SQRDSSGFQVF	3.65 3.07 2.04	2.92	2 of 9 (3.02)

Again, the first 2 entries without any signal:

CDR-L1,CDR-L2,CDR-L3,log10 Kd (nM) by replicate,mean log10 Kd (nM),empty controls
EKDSLRYYYAN,GKNRRPS,SSRDSSGTQVF,ND ND ND,ND,0 of 9
EGDSLRYYYAN,DKNNRPS,SIRDSSNFQVF,ND ND ND,ND,0 of 9

Nonspecific signal, from three strains lacking the peptide, appeared in 28% of pairings of library AAYL52, centred on 3.91 (5% of these signals below 2.90); values are not corrected for it. Also given: how often the same scFv was detected with the empty control strains, with their mean in brackets.
For reference, the parent read 2.31 as the reference entry and 2.25 as a member of this library.

Source: Engelhart et al. 2022 (doi:10.1038/s41597-022-01779-4), MIT Lincoln Laboratory and A-Alpha Bio; data file from the FLAb repository.